Assay results reported in ChEMBL document CHEMBL5316313, “Discovery of Novel 3-Phenylpiperidine Derivatives Targeting the β-Catenin/B-Cell Lymphoma 9 Interaction as a Single Agent and in Combination with the Anti-PD-1 Antibody for the Treatment of Colorectal Cancer” (J Med Chem, 2023).

By UniProt entry, the sequences of proteins in these tests, tags left out.
UniProt P35222, whole entry: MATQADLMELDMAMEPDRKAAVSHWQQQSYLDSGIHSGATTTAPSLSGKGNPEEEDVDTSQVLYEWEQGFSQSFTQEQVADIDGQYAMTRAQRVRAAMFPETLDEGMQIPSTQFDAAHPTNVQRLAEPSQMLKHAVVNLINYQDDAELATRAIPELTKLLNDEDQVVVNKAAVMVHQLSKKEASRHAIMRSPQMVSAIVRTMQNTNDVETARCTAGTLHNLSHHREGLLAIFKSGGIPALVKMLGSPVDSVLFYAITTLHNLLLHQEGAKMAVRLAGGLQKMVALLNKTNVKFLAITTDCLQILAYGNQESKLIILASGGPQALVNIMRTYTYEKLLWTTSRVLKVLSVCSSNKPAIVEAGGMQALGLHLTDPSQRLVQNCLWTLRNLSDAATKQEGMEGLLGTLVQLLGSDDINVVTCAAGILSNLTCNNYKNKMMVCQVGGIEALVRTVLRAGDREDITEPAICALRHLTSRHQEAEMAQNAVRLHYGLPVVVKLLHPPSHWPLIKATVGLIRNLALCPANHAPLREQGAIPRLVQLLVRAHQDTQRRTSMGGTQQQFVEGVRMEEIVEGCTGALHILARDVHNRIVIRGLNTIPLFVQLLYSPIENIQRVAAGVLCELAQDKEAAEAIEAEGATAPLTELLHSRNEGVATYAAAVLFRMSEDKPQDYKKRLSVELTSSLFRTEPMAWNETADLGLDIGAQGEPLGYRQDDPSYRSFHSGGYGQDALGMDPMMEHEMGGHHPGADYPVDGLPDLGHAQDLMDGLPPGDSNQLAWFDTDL

Key:
[1] = target: T1, beta-catenin-B-cell lymphoma 9 protein complex (Homo sapiens, UniProt P35222); test: Inhibition of beta-catenin/BCL9 protein-protein interaction in Wnt-dependent human HCT-116 cells assessed as reduction in Axin2 expression level by qRT-PCR assay; type: cell-based
[2] = target: T1, beta-catenin-B-cell lymphoma 9 protein complex; test: Inhibition of N-terminal His6-tagged full-length recombinant beta-catenin (1 to 781 residues) (unknown origin) expressed in Escherichia coli BL21 DE3/N-terminal FAM tagged BCL9 HD2(350 to 375 residues) (unknown origin) protein-protein interaction assessed as inhibition constant incubated for 3 hrs by competitive fluorescence polarization assay

IC50 [1]: 14.6 µM | IC50 [2]: 5.39 µM
Structure (SMILES): CC(C)c1ccc(COC(=O)N2CCCC(c3cccc(OC(C)(C)C(=O)O)c3)C2)cc1 (configuration not stated)
